Source: PubChem BioAssay (EPA / NIEHS)
The list shows a part of the results, in another mix than the full data. The source made the active and inactive calls. The calls were made as follows: active = hit-call score of the fitted dose curve at least 0.9, where 1 is the maximum; inactive = score below 0.9.

Experiment: ATG_PPRE_CIS: Attagene CIS-FACTORIAL HepG2 Assay for human Peroxisome Proliferator-activated Response Element (PPRE) (AID 2282958)
Conditions: HepG2 PPRE cis-element reporter, Attagene transcription factor profiling; actives raise or lower the signal

Structure (SMILES)	outcome	AC50
C=C(C)c1cccc(C(C)(C)N=C=O)c1	inactive	–
CCCCC(CC)CCC(CC(C)C)OS(=O)(=O)O (centres undefined)	inactive	–
COc1ccc(C(C)=O)cc1	inactive	–
CC(C)=CCC/C(C)=C\C#N	inactive	–
NS(=O)(=O)c1cc2c(cc1Cl)NCNS2(=O)=O	–	active: 2.9 µM
CC(C)C[C@H]1C(=O)N2CCC[C@H]2[C@]2(O)O[C@](NC(=O)[C@@H]3C=C4c5cccc6[nH]c(Br)c(c56)C[C@H]4N(C)C3)(C(C)C)C(=O)N12	inactive	–
CCOc1ccc(NC(C)=O)cc1	inactive	–
O=C(O)c1cc(C(=O)O)cc([N+](=O)[O-])c1	inactive	–
C=C(C)C(=O)OCCO	inactive	–
O=[N+]([O-])c1cc(C(F)(F)F)ccc1Cl	inactive	–
S=C(S)NCCNC(=S)S	inactive	–
CC(C)(C)c1ccc(O)c(C(C)(C)C)c1	inactive	–
O=C1NC(=O)c2ccccc21	inactive	–
CC(=O)CCC=C(C)CCC=C(C)C	inactive	–
C=CCCCCCCCCC(=O)O	–	active: 43.5 µM
OC[C@@H](O)[C@@H](O)[C@H](O)[C@@H](O)CO	inactive	–
Nc1ccc(S(=O)(=O)Nc2cnc3ccccc3n2)cc1	inactive	–
CC(=O)O[C@H]1C[C@@H]2CC[C@@]1(C)C2(C)C	inactive	–
CC1=Nc2ccc3ccccc3c2C1(C)C	inactive	–
C=C(C)OC(C)=O	inactive	–

Structure (SMILES)	outcome	AC50
CCCCCCCCCCCCOCCO	inactive	–
CC(C)(C)c1ccc(OC(=O)c2ccccc2O)cc1	inactive	–
CN1CCCC1	inactive	–
CN1CCCC1=O	inactive	–
CN1C(=O)CC[C@H]1c1cccnc1	inactive	–
CCCOC(=O)NCCCN(C)C	inactive	–
OC[C@H]1O[C@@H]2O[C@H]3[C@H](O)[C@@H](O)[C@@H](O[C@H]4[C@H](O)[C@@H](O)[C@@H](O[C@H]5[C@H](O)[C@@H](O)[C@@H](O[C@H]6[C@H](O)[C@@H](O)[C@@H](O[C@H]7[C@H](O)[C@@H](O)[C@@H](O[C@H]1[C@H](O)[C@H]2O)O[C@@H]7CO)O[C@@H]6CO)O[C@@H]5CO)O[C@@H]4CO)O[C@@H]3CO	inactive	–
CCCCc1ccc(N)cc1	inactive	–
Cc1nc(C)nc(N2C[C@@H](C)N(c3ccnc([C@@H](C)O)n3)[C@@H](C)C2)n1	inactive	–
Cc1cc(CCC(=O)OCCOCCOCCOC(=O)CCc2cc(C)c(O)c(C(C)(C)C)c2)cc(C(C)(C)C)c1O	inactive	–
COc1ccccc1N=Nc1c(S(=O)(=O)O)cc2cc(S(=O)(=O)O)cc(NC(C)=O)c2c1O	inactive	–
Cc1c(Cl)cccc1Cl	inactive	–
CCOC(=O)c1ccc(N)cc1	inactive	–
O=C(O)c1ccccc1	inactive	–
CCOC(=O)CC(CC(=O)OCC)(OC(C)=O)C(=O)OCC	inactive	–
CCCCOC(=O)CCCCCCCCC(=O)OCCCC	inactive	–
CCOCCOCCOCCO	inactive	–
OCCc1ccncc1	inactive	–
C=C1CC/C=C(\C)CC[C@@H]2[C@@H]1CC2(C)C	–	active: 131 µM
